Publication PMC12567096, “An Efficacy- and In Vivo Exposure-Oriented Integrated Study to Investigate the Effective Components of Qishen Granule” (Pharmaceuticals, 2025)

Assay: Pharmacokinetic study in rats after oral administration of QSG

Row | AUC(0-inf) (Sprague Dawley, rat, plasma, po, 7 g/kg, AUC0→∞, Table S12, rats, oral QSG) [ng·h/mL] | Compound | AUCi (exposure (AUC0→∞) of the component in rats after oral QSG, as used for ECI) | AUC0→∞ (rat plasma, single oral 7 g/kg QSG, n = 6) [ng·h/mL]
1 | 176 | O=C(/C=C/c1ccc(O)c(O)c1)O[C@@H]1C[C@](O)(C(=O)O)C[C@@H](O)[C@H]1O [Chlorogenic acid] |  | 
2 |  | O=C(/C=C/c1ccc(O)c(O)c1)O[C@@H]1C[C@@](O)(C(=O)O)C[C@@H](O)[C@@H]1O [Neochlorogenic acid] | 175.7 | 175.7 ± 70.81
